US6194143A, “Substrates for human cytomegalovirus protease” (Boehringer Ingelheim (Canada) Ltd., priority 1998, dated 2001)

How the values were obtained:
[1] = Stability of 10 mM DMSO stock solutions at 4° C.; format: physicochemical; details: 10 mM in DMSO, stored at 4° C.
Protocol: Stock solutions (10 mM) in DMSO of the compounds prepared in examples 2, 3, 4, 5 and 6 were stored at 4° C. […] Aliquoted samples of HCMV protease 50 μM (1.4 mg/ml) were kept at -80° C. in storing buffer without detectable loss of activity over an extended period of more than a year. The calculated molecular mass of wild-type HCMV protease was 28042 Da. The concentration of enzyme on which the calculations of the turnover number, kcat, and the specificity constant, kcat /Km, were derived was expressed in terms of total monomer concentration.

[2] = aliquots at 4° C.; with 0.1% w/v casein, 20 μM cold substrate 13, 5 mM dithiothreitol

## d-Biotin-Arg-Gly-Tbg-Tbg-Asn (Me) 2 -Ala-Ser-Ser-Arg-Leu-Ala-Tyr-NH2 [Substrate 5]
[1]
  stability of compound in stock solution: stable for several weeks

## d-Biotin-Arg-Gly-Val-Val-Asn-Ala-Ser-Ser-Arg-Leu-Ala-Tyr-NH2 [Substrate 4]
[1]
  stability of compound in stock solution: stable for several weeks

## d-Biotin-Arg-Gly-Tbg-Tbg-Asn(Me)2 -Ala-Ser-Ser-Arg-Leu-Ala-Tyr(^125,)-NH2 [Substrate 13a]
[2]
  time solution was stable: 3-4 weeks
